Biological target: poly(ADP-ribose) polymerase (PARP) (Bos taurus, UniProt P18493)
Assay: Activity against purified PARP, [3H]NAD incorporation
Assay type: biochemical
Conditions: read-out: IC50 of PARP inhibitors tested on enzyme prepared from bovine thymus; purified PARP from foetal calf thymus, 37° C., 30 mins

Chains of the proteins cited; added tags and fusions are not shown.
UniProt P18493, whole entry: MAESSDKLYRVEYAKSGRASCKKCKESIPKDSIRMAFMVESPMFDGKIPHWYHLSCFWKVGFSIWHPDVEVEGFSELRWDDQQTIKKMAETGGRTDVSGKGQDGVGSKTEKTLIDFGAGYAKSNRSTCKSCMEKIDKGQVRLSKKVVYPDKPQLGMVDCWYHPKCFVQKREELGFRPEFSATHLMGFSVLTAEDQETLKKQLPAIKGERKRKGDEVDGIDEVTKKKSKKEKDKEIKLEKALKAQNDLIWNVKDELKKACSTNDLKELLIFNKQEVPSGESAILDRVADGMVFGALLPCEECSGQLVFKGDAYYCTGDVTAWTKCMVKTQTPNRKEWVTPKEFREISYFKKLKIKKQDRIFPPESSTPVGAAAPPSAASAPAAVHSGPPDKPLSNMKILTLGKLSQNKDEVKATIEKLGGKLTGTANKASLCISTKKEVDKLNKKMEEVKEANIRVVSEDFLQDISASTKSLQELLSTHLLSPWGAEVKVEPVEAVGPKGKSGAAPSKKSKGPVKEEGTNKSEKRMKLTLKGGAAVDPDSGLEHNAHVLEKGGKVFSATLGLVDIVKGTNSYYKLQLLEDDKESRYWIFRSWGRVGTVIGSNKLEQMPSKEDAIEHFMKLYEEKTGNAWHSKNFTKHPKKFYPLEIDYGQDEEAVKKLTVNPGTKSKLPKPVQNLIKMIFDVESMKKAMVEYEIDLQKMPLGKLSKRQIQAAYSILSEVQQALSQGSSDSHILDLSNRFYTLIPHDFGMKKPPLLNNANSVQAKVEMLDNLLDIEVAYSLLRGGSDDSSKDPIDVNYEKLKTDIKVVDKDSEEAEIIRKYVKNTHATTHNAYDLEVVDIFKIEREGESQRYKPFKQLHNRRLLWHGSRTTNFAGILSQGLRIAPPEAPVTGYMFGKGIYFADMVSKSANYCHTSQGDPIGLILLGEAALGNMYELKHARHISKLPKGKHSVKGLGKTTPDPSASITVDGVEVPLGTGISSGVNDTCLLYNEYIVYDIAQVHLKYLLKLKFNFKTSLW

O=C1NCCc2c(OCCCCN3CCCCC3)cccc21
IC50: 10 µM

From patent US7825129B2, “Thieno[2,3-c] isoquinolines for use as inhibitors of PARP” (priority 2000, dated 2010)
